Measurements taken from ChEMBL document CHEMBL3638764, “Compounds and their use as BACE inhibitors” (2014).

The chains behind the UniProt entries cited, without tags or fusion partners. Where a name states a change or a piece, a line headed by the entry shows the natural chain unless it says otherwise.
UniProt P56817: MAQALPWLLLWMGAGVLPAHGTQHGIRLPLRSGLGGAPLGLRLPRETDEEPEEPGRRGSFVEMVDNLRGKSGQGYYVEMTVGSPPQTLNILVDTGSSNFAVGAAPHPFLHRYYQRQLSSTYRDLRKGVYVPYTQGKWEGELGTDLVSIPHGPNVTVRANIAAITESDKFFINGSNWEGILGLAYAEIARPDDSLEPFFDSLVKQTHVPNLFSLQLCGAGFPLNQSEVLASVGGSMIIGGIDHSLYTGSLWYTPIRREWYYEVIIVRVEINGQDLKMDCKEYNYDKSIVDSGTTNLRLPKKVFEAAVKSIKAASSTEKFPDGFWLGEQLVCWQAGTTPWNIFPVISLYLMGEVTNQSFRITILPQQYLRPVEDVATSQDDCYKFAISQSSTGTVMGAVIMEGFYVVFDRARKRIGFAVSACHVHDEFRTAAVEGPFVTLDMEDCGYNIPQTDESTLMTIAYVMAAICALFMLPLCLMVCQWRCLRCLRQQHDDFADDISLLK

How the values were obtained:
[1] = target: T1, Beta-secretase 1 (Homo sapiens, UniProt P56817); test: TR-FRET Assay: The beta-secretase enzyme used in the TR-FRET is prepared as follows: The cDNA for the soluble part of the human beta-Secretase (AA 1-AA 460) was cloned using the ASP2-Fc10-1-IRES-GFP-neoK mammalian expression vector. The gene was fused to the Fc domain of IgG1 (affinity tag) and stably cloned into HEK 293 cells. […] The robotic systems Biomek FX and Velocity 11 were used for all liquid handling and the enzyme and substrate solutions were kept on ice until they were placed in the robotic system. Enzyme (9 ul) was added to the plate then 1 ul of compound in dimethylsulphoxide was added, mixed and pre-incubated for 10 minutes. Substrate (10 ul) was then added, mixed.; format: cell-based, HEK293
[2] = target: T1, Beta-secretase 1; test: Diluted TR-FRET Assay: TR-FRET AssayThe beta-secretase enzyme used in the TR-FRET is prepared as follows: The cDNA for the soluble part of the human beta-Secretase (AA 1-AA 460) was cloned using the ASP2-Fc10-1-IRES-GFP-neoK mammalian expression vector. The gene was fused to the Fc domain of IgG1 (affinity tag) and stably cloned into HEK 293 cells. […] The robotic systems Biomek FX and Velocity 11 were used for all liquid handling and the enzyme and substrate solutions were kept on ice until they were placed in the robotic system. Enzyme (9 ul) was added to the plate then 1 ul of compound in dimethylsulphoxide was added, mixed and pre-incubated for 10 minutes.; format: cell-based, HEK293

Row | SMILES | IC50 ([1]; hek293) [µM] | IC50 [2] [µM] | further results
1 | CO[C@H]1CC[C@]2(CC1)Cc1ccc(-c3cc(Cl)cc(C#N)c3)cc1[C@@]21N=C(C)C(N)=N1 | 0.02 |  | 
2 | CC1=N[C@]2(C[C@H]([C@H]3CCCOC3)Oc3ccc(-c4cccc(Cl)c4)cc32)N=C1N (single isomer, unassigned; isomer 4) |  |  | IC50 [1]: 0.803 µM
3 | CC1=N[C@]2(C[C@H]([C@@H]3CCCOC3)Oc3ccc(-c4cccc(Cl)c4)cc32)N=C1N (single isomer, unassigned; isomer 7) |  | 0.01 | 
4 | CC1=N[C@]2(C[C@@H]([C@H]3CCCOC3)Oc3ccc(-c4cccc(Cl)c4)cc32)N=C1N (single isomer, unassigned; isomer 8) |  | 0.014 | 
5 | CO[C@H]1CC[C@]2(CC1)Cc1ccc(-c3cncc(Cl)c3)cc1[C@@]21N=C(C)C(N)=N1 | 0.023 |  | 
